Literature values, collected in patent publication US6509371B1, “Compositions containing Bergamottin for increasing the oral bioavailability of pharmaceutical agents” (Warner-Lambert Company, priority 1997, dated 2003).

Protein sequences, listed by entry. Tags and fused reporters are not part of them.
UniProt P08684, whole entry: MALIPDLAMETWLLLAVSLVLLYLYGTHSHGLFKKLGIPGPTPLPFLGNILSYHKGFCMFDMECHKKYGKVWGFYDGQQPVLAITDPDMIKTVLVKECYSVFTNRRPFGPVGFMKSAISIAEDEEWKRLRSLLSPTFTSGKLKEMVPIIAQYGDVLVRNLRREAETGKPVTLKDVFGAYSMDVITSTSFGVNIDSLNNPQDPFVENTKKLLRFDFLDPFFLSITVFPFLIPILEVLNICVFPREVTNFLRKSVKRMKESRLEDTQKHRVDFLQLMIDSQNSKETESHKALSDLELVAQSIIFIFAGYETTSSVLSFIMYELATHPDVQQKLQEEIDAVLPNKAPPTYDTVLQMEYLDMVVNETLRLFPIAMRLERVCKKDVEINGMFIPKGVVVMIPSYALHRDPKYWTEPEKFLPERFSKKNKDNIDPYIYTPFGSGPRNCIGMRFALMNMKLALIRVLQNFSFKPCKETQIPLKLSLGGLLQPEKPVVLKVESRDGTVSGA

What was measured:
P450 3A4 = P450 3A4 (Homo sapiens, UniProt P08684); conditions: in vivo; cited from earlier work
[1] = cited from earlier work

Substance: Medroxyprogesterone
- Fraction Metabolized (P450 3A4): >90%
- Oral Bioavailability [1]: <20%
